This test addresses Histamine H1 receptor (Cavia porcellus) (UniProt P31389). Briefly: In vitro inhibition of histamine(H1) induced contraction of guinea pig ileum. It is filed as functional, tissue-based. In short, it runs like this: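 Isolated guinea pig ileum in a bath. Cumulative histamine curves every 5 min, logarithmically increasing doses (5.4 × 10^-8, 1.6 × 10^-7, 5.4 × 10^-7 M, ...) until maximal contraction. Repeated after 5 min antagonist contact, then washout and two further curves. Highest test dose normally 0.04 mg/L. A10 = antagonist concentration giving a 10-fold rightward shift of the histamine curve.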

Protein sequences, listed by entry. Tags and fused reporters are not part of them.
UniProt P31389, whole entry, looked up: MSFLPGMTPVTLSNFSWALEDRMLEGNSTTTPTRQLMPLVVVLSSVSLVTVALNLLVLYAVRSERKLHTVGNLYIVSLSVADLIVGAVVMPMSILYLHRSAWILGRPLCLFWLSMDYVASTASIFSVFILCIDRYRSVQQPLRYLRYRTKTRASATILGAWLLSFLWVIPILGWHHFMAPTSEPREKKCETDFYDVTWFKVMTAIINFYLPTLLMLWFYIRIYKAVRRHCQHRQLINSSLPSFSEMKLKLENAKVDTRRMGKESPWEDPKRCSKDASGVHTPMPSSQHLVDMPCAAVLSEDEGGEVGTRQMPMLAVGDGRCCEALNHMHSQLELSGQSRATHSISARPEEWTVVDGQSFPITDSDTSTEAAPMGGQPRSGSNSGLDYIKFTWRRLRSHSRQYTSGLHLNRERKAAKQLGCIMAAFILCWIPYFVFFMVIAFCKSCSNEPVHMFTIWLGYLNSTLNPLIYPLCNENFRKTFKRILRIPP

The values below come from ChEMBL document CHEMBL1122877, “New antihistaminic N-heterocyclic 4-piperidinamines. 1. Synthesis and antihistaminic activity of N-(4-piperidinyl)-1H-benzimidazol-2-amines” (1985).

On to `CCCCn1c(N(C)C2CCN(CCc3ccccc3)CC2)nc2ccccc21`, for which the A10 worked out at 0.0063 mg/L.
The result for `CCCCN(c1nc2ccccc2[nH]1)C1CCN(CCc2ccccc2)CC1` reads 0.03 mg/L; that for `Clc1ccc(Cn2c(NC3CCN(CCc4ccccc4)CC3)nc3ccccc32)cc1`, 0.01 mg/L.
Compound `C(=C\c1ccccc1)/CN1CCC(Nc2nc3ccccc3n2Cc2ccccc2)CC1` gave an A10 of 0.025 mg/L.
The result for `COc1cccc(CCN2CCC(Nc3nc4ccccc4n3Cc3ccccc3)CC2)c1` reads 0.0063 mg/L; that for `CC(C)N(c1nc2ccccc2n1Cc1ccccc1)C1CCN(CCc2ccccc2)CC1`, over 0.01 mg/L; that for `CCCCn1c(NC2CCN(CCc3ccccc3)CC2)nc2ccccc21`, 0.0051 mg/L.
For the compound `COc1ccc(CCN2CCC(Nc3nc4ccccc4n3Cc3ccccc3)CC2)cc1OC`, the A10 is over 0.01 mg/L.
In turn, `COc1ccccc1CCN1CCC(Nc2nc3ccccc3n2Cc2ccccc2)CC1` had an A10 of 0.01 mg/L.
For the compound `c1ccc(Cn2c(NC3CCN(CCCOc4ccccc4)CC3)nc3ccccc32)cc1`, the A10 was found to be 0.01 mg/L.
With `c1ccc(Cn2c(NC3CCN(CCc4cccs4)CC3)nc3ccccc32)cc1` the figure was 0.0063 mg/L; with `CN(c1nc2ccccc2n1Cc1ccc(F)cc1)C1CCN(CCc2ccccc2)CC1`, 0.0063 mg/L; with `CN(c1nc2ccccc2n1Cc1ccc(Cl)cc1)C1CCN(CCc2ccccc2)CC1`, 0.0063 mg/L.
The compound `c1ccc(CCN2CCC(Nc3nc4ccccc4[nH]3)CC2)cc1` gave an A10 of 0.01 mg/L.
With `Cn1c(NC2CCN(CCn3nnn(-c4ccccc4)c3=O)CC2)nc2ccccc21` the figure was 0.02 mg/L; with `CCn1c(N(Cc2ccccc2)C2CCN(CCc3ccccc3)CC2)nc2ccccc21`, 0.016 mg/L; with `Brc1ccc(Cn2c(NC3CCN(CCc4ccccc4)CC3)nc3ccccc32)cc1`, 0.025 mg/L.
With `CCn1c(NC2CCN(CCC(C(=O)N(C)C)(c3ccccc3)c3ccccc3)CC2)nc2ccccc21` the figure was over 0.04 mg/L.
Consider `O=C(CCCN1CCC(Nc2nc3ccccc3n2Cc2ccccc2)CC1)c1ccc(F)cc1`, for which the A10 came to 0.025 mg/L.
The result for `c1ccc(CN2CCC(Nc3nc4ccccc4n3Cc3ccccc3)CC2)cc1` reads 0.01 mg/L; that for `c1ccc(Cn2c(NC3CCN(C4CCCCC4)CC3)nc3ccccc32)cc1`, 0.01 mg/L; that for `C=CCN1CCC(Nc2nc3ccccc3n2CC)CC1`, 0.04 mg/L.
The result for `CN(c1nc2ccccc2n1Cc1ccccc1)C1CCN(CCc2ccccc2)CC1` reads 0.005 mg/L; that for `CCn1c(N(C)C2CCN(CCc3ccccc3)CC2)nc2ccccc21`, 0.0025 mg/L; that for `OC(COc1ccccc1)CN1CCC(Nc2nc3ccccc3n2Cc2ccccc2)CC1` (centres undefined), 0.03 mg/L.
In turn, `Oc1nc2ccccc2n1CCCN1CCC(Nc2nc3ccccc3n2Cc2ccccc2)CC1` yielded an A10 of over 0.01 mg/L.
`c1ccc(Cn2c(NC3CCN(CCC(c4ccccc4)c4ccccc4)CC3)nc3ccccc32)cc1` showed an A10 of 0.04 mg/L.
The result for `CCCCCCCn1c(NC2CCN(CCc3ccccc3)CC2)nc2ccccc21` reads over 0.04 mg/L; that for `CN1CCC(Nc2nc3ccccc3n2C)CC1`, over 0.04 mg/L; that for `c1ccc(Cn2c(NC3CCN(CCOc4ccccc4)CC3)nc3ccccc32)cc1`, 0.01 mg/L.
The result for `Clc1ccccc1Cn1c(NC2CCN(CCc3ccccc3)CC2)nc2ccccc21` reads 0.01 mg/L.
For the compound `COc1ccccc1Cn1c(N(C)C2CCN(CCc3ccccc3)CC2)nc2ccccc21`, the A10 was found to be 0.0063 mg/L.
`CC(Cn1c(NC2CCN(CCc3ccccc3)CC2)nc2ccccc21)c1ccccc1` (centres undefined) gave an A10 of over 0.04 mg/L.
The result for `CN(c1nc2ccccc2n1Cc1ccccc1Cl)C1CCN(CCc2ccccc2)CC1` reads 0.01 mg/L; that for `Clc1ccc(CCN2CCC(Nc3nc4ccccc4n3Cc3ccccc3)CC2)cc1`, 0.02 mg/L; that for `CN(C)C(=O)C(CCN1CCC(Nc2nc3ccccc3n2Cc2ccccc2)CC1)(c1ccccc1)c1ccccc1`, 0.04 mg/L.
The result for `N#CC1(c2ccccc2)CCC(N2CCC(Nc3nc4ccccc4n3Cc3ccccc3)CC2)CC1` (centres undefined) reads 0.025 mg/L.
Compound `c1ccc(CCN2CCC(Nc3nc4ccccc4n3Cc3ccccc3)CC2)cc1` yielded an A10 of 0.003 mg/L.
With `Cn1c(NC2CCN(CCc3ccccc3)CC2)nc2ccccc21` the figure was 0.005 mg/L; with `FC(F)(F)c1cccc(CCN2CCC(Nc3nc4ccccc4n3Cc3ccccc3)CC2)c1`, over 0.04 mg/L.
The compound `C=CCN1CCC(Nc2nc3ccccc3n2Cc2ccccc2)CC1` returned an A10 of 0.0063 mg/L.
The result for `c1ccc(CCN2CCC(Nc3nc4ccccc4n3C3CCCC3)CC2)cc1` reads over 0.04 mg/L.
With `CCn1c(NC2CCN(CCc3ccccc3)CC2)nc2ccccc21` the figure was 0.0063 mg/L; with `CC(c1ccc(F)cc1)n1c(NC2CCN(CCc3ccccc3)CC2)nc2ccccc21` (centres undefined), over 0.01 mg/L.
The result for `CCn1c(NC2CCN(C/C=C/c3ccccc3)CC2)nc2ccccc21` reads over 0.04 mg/L; that for `COc1ccc(CCN2CCC(Nc3nc4ccccc4n3Cc3ccccc3)CC2)cc1`, over 0.01 mg/L; that for `Cc1ccc(Cn2c(N(C)C3CCN(CCc4ccccc4)CC3)nc3ccccc32)cc1`, 0.0063 mg/L.
On to `Cc1ccc(Cn2c(NC3CCN(CCc4ccccc4)CC3)nc3ccccc32)cc1`, for which the A10 was determined as 0.02 mg/L.
With `Fc1ccccc1Cn1c(NC2CCN(CCc3ccccc3)CC2)nc2ccccc21` the figure was 0.0063 mg/L.
The result for `c1ccc(CCN2CCC(Nc3nc4ccccc4n3CCc3ccccc3)CC2)cc1` reads 0.0075 mg/L; that for `CCn1c(NC2CCN(CC3COc4ccccc4O3)CC2)nc2ccccc21` (centres undefined), over 0.04 mg/L; that for `Fc1ccc(C(c2ccc(F)cc2)n2c(NC3CCN(CCc4ccccc4)CC3)nc3ccccc32)cc1`, over 0.04 mg/L.
For the compound `CCn1c(NC2CCN(C(C)C)CC2)nc2ccccc21`, the A10 was over 0.04 mg/L.
The result for `CCOc1ccc(CCN2CCC(Nc3nc4ccccc4n3Cc3ccccc3)CC2)cc1` reads 0.0063 mg/L; that for `Fc1ccc(CN2CCC(Nc3nc4ccccc4n3Cc3ccccc3)CC2)cc1`, 0.01 mg/L; that for `Cn1c(NC2CCN(CCCC(c3ccc(F)cc3)c3ccc(F)cc3)CC2)nc2ccccc21`, over 0.04 mg/L.
Consider `CCCn1c(NC2CCN(CCc3ccccc3)CC2)nc2ccccc21`, for which the A10 came out at 0.02 mg/L.
Compound `CC(c1ccccc1)n1c(NC2CCN(CCc3ccccc3)CC2)nc2ccccc21` (centres undefined) returned an A10 of 0.025 mg/L.
In turn, `CC(C)n1c(NC2CCN(CCc3ccccc3)CC2)nc2ccccc21` gave an A10 of over 0.04 mg/L.
Turning to `CN(c1nc2ccccc2n1Cc1ccc(Br)cc1)C1CCN(CCc2ccccc2)CC1`, the A10 came out at 0.04 mg/L.
The result for `CCCN(c1nc2ccccc2n1Cc1ccccc1)C1CCN(CCc2ccccc2)CC1` reads over 0.01 mg/L; that for `Fc1ccc(CCN2CCC(Nc3nc4ccccc4n3Cc3ccccc3)CC2)cc1`, 0.01 mg/L.
With `c1ccc(Cn2c(NC3CCN(CC4COc5ccccc5O4)CC3)nc3ccccc32)cc1` (centres undefined) the figure was 0.01 mg/L; with `c1ccc(CCN2CCC(N(Cc3ccccc3)c3nc4ccccc4[nH]3)CC2)cc1`, 0.0076 mg/L; with `CCCCCCn1c(NC2CCN(CCc3ccccc3)CC2)nc2ccccc21`, 0.025 mg/L.
The compound `O=c1[nH]c2ccccc2n1CCCN1CCN(C(c2ccccc2)c2ccccc2)CC1` [OXATOMIDE] yielded an A10 of 0.014 mg/L.
With `c1ccc(CCN2CCC(Nc3nc4ccccc4n3Cc3ccccn3)CC2)cc1` the figure was 0.0063 mg/L; with `c1ccc(Cn2c(NC3CCN(C(c4ccccc4)c4ccccc4)CC3)nc3ccccc32)cc1`, 0.04 mg/L; with `CCCCCn1c(NC2CCN(CCc3ccccc3)CC2)nc2ccccc21`, 0.011 mg/L.
`CCn1c(N(C(C)C)C2CCN(CCc3ccccc3)CC2)nc2ccccc21` registered an A10 of over 0.01 mg/L.
With `CCn1c(NC2CCN(CCC(C#N)(c3ccccc3)c3ccccc3)CC2)nc2ccccc21` the figure was over 0.04 mg/L.
Turning to `CN(c1nc2ccccc2[nH]1)C1CCN(CCc2ccccc2)CC1`, the A10 was determined as 0.02 mg/L.
The result for `Fc1ccc(C(CCCN2CCC(Nc3nc4ccccc4n3Cc3ccccc3)CC2)c2ccc(F)cc2)cc1` reads over 0.04 mg/L; that for `CCn1c(NC2CCN(CCCC(=O)c3ccc(F)cc3)CC2)nc2ccccc21`, 0.01 mg/L; that for `CCn1nnn(CCN2CCC(Nc3nc4ccccc4n3Cc3ccccc3)CC2)c1=O`, 0.025 mg/L.
Turning to `c1ccc(CCCN2CCC(Nc3nc4ccccc4n3Cc3ccccc3)CC2)cc1`, the A10 came out at 0.01 mg/L.
Compound `CCN(c1nc2ccccc2n1Cc1ccccc1)C1CCN(CCc2ccccc2)CC1` gave an A10 of 0.017 mg/L.
The result for `Cc1cccc(CCN2CCC(Nc3nc4ccccc4n3Cc3ccccc3)CC2)c1` reads over 0.01 mg/L; that for `Fc1ccc(Cn2c(NC3CCN(CCc4ccccc4)CC3)nc3ccccc32)cc1`, 0.0063 mg/L.
The compound `CCCCN1CCC(Nc2nc3ccccc3n2Cc2ccccc2)CC1` showed an A10 of 0.0063 mg/L.
As to `COc1ccc(Cn2c(N(C)C3CCN(CCc4ccccc4)CC3)nc3ccccc32)cc1`, the A10 came out at 0.01 mg/L.
With `CN1CCC(Nc2nc3ccccc3n2Cc2ccccc2)CC1` the figure was 0.0025 mg/L.
With `Oc1nc2ccccc2n1CCN1CCC(Nc2nc3ccccc3n2Cc2ccccc2)CC1` the figure was 0.025 mg/L; with `c1ccc(CCN2CCC(N(c3nc4ccccc4[nH]3)C3CC3)CC2)cc1`, over 0.04 mg/L.
The result for `CCN(c1nc2ccccc2[nH]1)C1CCN(CCc2ccccc2)CC1` reads 0.029 mg/L.
On to `CCn1c(NC2CCN(CCCC(c3ccc(F)cc3)c3ccc(F)cc3)CC2)nc2ccccc21`, for which the A10 is 0.025 mg/L.
With `CC(c1ccccc1)N1CCC(Nc2nc3ccccc3n2Cc2ccccc2)CC1` (centres undefined) the figure was 0.0063 mg/L; with `c1ccc(CCN2CCC(N(Cc3ccccc3)c3nc4ccccc4n3Cc3ccccc3)CC2)cc1`, over 0.04 mg/L; with `COc1cc(CCN2CCC(Nc3nc4ccccc4n3Cc3ccccc3)CC2)cc(OC)c1OC`, over 0.01 mg/L.
